Among the data in patent publication US9901592B2 (priority 2008, dated 2018) are PAE values, retold here.

For the assay, the system named is S. pneumoniae ATCC 49619. The assay is described as follows: post-antibiotic effect (PAE) testing. The following applies: 4X MIC, exposure 1 hour.

In turn, `CC[C@H]1OC(=O)[C@@](C)(F)C(=O)[C@H](C)[C@@H](OC2OC(C)CC(N(C)C)C2O)[C@@](C)(OC)C[C@@H](C)C(=O)[C@H](C)[C@H]2N(CCCCn3cc(-c4cccc(N)c4)nn3)C(=O)O[C@]12C` (some centres unmarked) [CEM-101, 11-N-4-(3-aminophenyl)-[1,2,3]triazol-1-yl]-butyl}-5-desosaminyl-3-oxo-2-fluoro-erythronolide A,-11,12-cyclic carbamate] registered a PAE of 3.0 h.
On to `CC[C@H]1OC(=O)[C@H](C)C(=O)[C@H](C)[C@@H](O[C@@H]2O[C@H](C)C[C@H](N(C)C)[C@H]2O)[C@](C)(OC)C[C@@H](C)C(=O)[C@H](C)[C@H]2N(CCCCn3cnc(-c4cccnc4)c3)C(=O)O[C@]12C` [TEL, telithromycin], for which the PAE stood at 1.9 h.
